According to US20240118265A1, “MATERIALS AND METHODS TO IMPROVE IN VITRO TOXICITY PREDICTIONS” (priority 2022, published 2024):

Key:
[1] = system: eye; conditions: GHS category; cited from earlier work
[2] = Depth of Migration (DM) test; type: physicochemical; conditions: 1:100 dilution in DM dye solution, 30 μL, 15° platform, after 30-120 seconds; table value
[3] = system: RhCE tissues; conditions: without DM test; cited from earlier work
[4] = system: isolated chicken eye; conditions: without DM test; cited from earlier work
[5] = system: cultured epithelium; conditions: without DM test; cited from earlier work
[6] = OptiSafe Eye Irritation Test (macromolecular/biochemical ocular irritation test), surfactant procedure; conditions: main score multiplied by DM distance traveled and correction factor

2-Pseudoionone
in vivo GHS [1]: Cat. 2
DM Distance Traveled [2]: 4.5
EpiOcular prediction versus in vivo [3]: false negatives

Maneb
in vivo GHS [1]: Cat. 2
DM Distance Traveled [2]: 4.5
ICE prediction versus in vivo [4]: false negatives

Propasol solvent P
in vivo GHS [1]: Cat. 2
DM Distance Traveled [2]: 4.5
Short Time Exposure (STE) prediction versus in vivo [5]: false negatives

Sodium lauroyl sarcosinate (10%)
ocular irritancy prediction with the Depth of Migration (DM) test [6]: did not meet criteria
